From the supplement of paper PMC9135407 come the findings set out here.

Structures can show the parent of a compound that is named as a salt. Only a part is listed here, and it is no random draw.

In the assay the test system is primary human hepatic stellate cells (donor 1). Briefly: PSMB2 reference mRNA level vs DMSO (fold); higher = more PSMB2 expression. Conditions: 33.3333 µM; 48 h. On the procedure: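 Secondary qRT-PCR screen in primary human HSCs (donor 1), 384-well plates, with compounds dispensed in quadruplicate and incubated for 48 h. Cells-to-CT lysates were used for multiplexed TaqMan qPCR of ACTA2 or COL1A1 with PSMB2 as reference. Fold changes versus DMSO come from a linear model (Ct_gene ~ Ct_PSMB2 + plate + chemical). A hit is defined as COL1A1 and ACTA2 FC <0.5 (FDR <0.05) with PSMB2 between 0.2 and 2.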
As to `N/C(=N/CCc1ccc(I)cc1)SCCCc1cnc[nH]1` [Iodophenpropit dihydrobromide], the “PSMB2 reference mRNA level” value was 0.0605.
